From publication PMC6350255 (Journal of medicinal chemistry, 2018)

Tested on: human β-cells (dispersed human pancreatic islets)
Type: cell-based
Conditions: doses of 3–30 μM

COc1ccc2c(c1)[nH]c1c(CO)nccc12 [Compound 2–2, 1-Hydroxymethyl-7-methoxy-9H-β-carboline]
human β-cell proliferation in words, dose response / overall: excellent human β-cell proliferation; also recorded: caused proliferation in a dose-dependent manner; also recorded: comparable to that of harmine

“Also recorded” adds a separate entry of the source.
